# In patent US20120288531A1, “PHARMACEUTICAL COMPOSITIONS FOR DELIVERY OF FERRIC IRON COMPOUNDS, AND METHODS OF USE THEREOF” (priority 2011, published 2012):
# How the values were obtained:
# [1] = Plasma iron levels after administration of ferric compounds via three routes (FIG. 2); conditions: conscious Sprague-Dawley rats, intra-jejunal via cannula, baseline to 4 hours post-dosing
# [2] = Single-dose pharmacokinetic study of enteric-coated gelatin capsules in male beagle dogs; conditions: 16 tested dogs
# [3] = one month at 25° and 40° C.
substance,measurement,setting,value
ammonium iron(III) citrate [ferric ammonium citrate],plasma iron levels (absorption from the jejunum),[1],baseline results
same,side-effects,[2],No side-effects
same,stability in the oily suspension,[3],good stability
